Tests used:
[1] = Thiol addition of glutathione monitored by UV LC-MS
[2] = molecular target: bovine serum albumin (BSA) (Bos taurus, UniProt P02769); assay: BSA conjugation, in-gel chymotrypsin digest and MS/MS analysis
[3] = pH 8.5 & 50 eq. or pH 7.4 & 100 eq., estimated from signal intensity ratios
[4] = pH 8.5, 100 eq. PT, estimated from signal intensity ratios

Row | SMILES | time to full conversion of the alkyne-phosphonothiolate with glutathione ([1]; buffer pH 8.5 / DMF, UV LC-MS) | modification of the single free cysteine (C58) ([2]; pH 7.4/8.0/8.5 & 100 eq.) | time to full conversion with glutathione ([1]; 2.0 eq. glutathione, buffer pH 8.0 / DMF, r.t., UPLC-MS) [min] | degree of modification, C58-containing peptides ([2]; pH 8.5 & 50 eq. or pH 7.4 & 100 eq.) | estimated degree of modification, H42 [2, 3] | estimated degree of modification, H91 [2, 3] | estimated degree of modification, H169/Y171/R168 [2, 3] | estimated degree of modification, H361/R360 [2, 3] | degree of modification, C58-containing peptides ([2]; pH 8.5, 100 eq. PT, 18 h, 4 °C) | estimated degree of modification, H42 [2, 4] | estimated degree of modification, H91/S89/T92 [2, 4] | estimated degree of modification, H169/R168 [2, 4] [%] | estimated degree of modification, H361/R360 [2, 4]
1 | C#CP(=O)(OC)SCc1ccccc1 (stereo not shown) | ca. 1 min | BSA was clearly detected and found to be ca. 90% |  |  |  |  |  |  |  |  |  |  | 
2 | C=CP(=O)(OCC)SCc1ccccc1 (stereo not shown) |  |  | 90 | modification is high (>50%). | 2-5% | 5-10% | H169/ Y171/R168 ca. 1-5%, H361/R360 ca. | 1-5%, all values are estimated from signal intensity | The degree of modification is high (>50%). | significantly lower for these peptides: (H42 ca. 5-10%, | H91/S89/T92 ca. 10-20%, H169/ R168 smaller | < 1 | 5-10%
